Literature values in US10881656B2, “HIF inhibitors and use thereof” (The General Hospital Corporation, priority 2008, dated 2021).

Test system: HIF
Details: published; cited from earlier work

## N[C@@H](Cc1ccc([N+]([O-])(CCCl)CCCl)cc1)C(=O)O
  Biological Activities: Tumor suppression
